Columns and labels:
[1] = system: human tongue squamous cell carcinoma cell line Cal27; assay: MTT cell viability assay, Cal27; format: cell-based; settings: read-out: Antiproliferative Effect IC50 Cal27, 72 h, n≥3, each in triplicate wells
HDAC1 = HDAC1 (Homo sapiens, UniProt Q13547); assay: In-vitro human HDAC1 fluorogenic inhibition assay (ZMAL substrate); format: biochemical; settings: read-out: Target Inhibition IC50 HDAC1, n≥2, each in duplicate wells
[2] = system: human primary glioblastoma cell line U87; assay: MTT cell viability assay, U87; format: cell-based; settings: read-out: Antiproliferative Effect IC50 U87, 72 h, n≥3, each in triplicate wells
human recombinant HDAC6 = human recombinant HDAC6 (Homo sapiens, UniProt Q9UBN7); assay: In-vitro human HDAC6 fluorogenic inhibition assay (ZMAL substrate); format: biochemical; settings: read-out: Target Inhibition IC50 HDAC6, n≥2, each in duplicate wells
[3] = system: human primary glioblastoma cell line U251; assay: MTT cell viability assay, U251; format: cell-based; settings: read-out: Antiproliferative Effect IC50 U251, 72 h, n≥3, each in triplicate wells, n.e.: no effect up to 100 μM
[4] = system: γ-H2AX formation in Cal27 cells; assay: γ-H2AX expression DNA damage assay; format: cell-based, human; settings: 24 h

Sequences of proteins named here, by UniProt entry; tags and fusion partners are left off.
UniProt Q13547, whole entry: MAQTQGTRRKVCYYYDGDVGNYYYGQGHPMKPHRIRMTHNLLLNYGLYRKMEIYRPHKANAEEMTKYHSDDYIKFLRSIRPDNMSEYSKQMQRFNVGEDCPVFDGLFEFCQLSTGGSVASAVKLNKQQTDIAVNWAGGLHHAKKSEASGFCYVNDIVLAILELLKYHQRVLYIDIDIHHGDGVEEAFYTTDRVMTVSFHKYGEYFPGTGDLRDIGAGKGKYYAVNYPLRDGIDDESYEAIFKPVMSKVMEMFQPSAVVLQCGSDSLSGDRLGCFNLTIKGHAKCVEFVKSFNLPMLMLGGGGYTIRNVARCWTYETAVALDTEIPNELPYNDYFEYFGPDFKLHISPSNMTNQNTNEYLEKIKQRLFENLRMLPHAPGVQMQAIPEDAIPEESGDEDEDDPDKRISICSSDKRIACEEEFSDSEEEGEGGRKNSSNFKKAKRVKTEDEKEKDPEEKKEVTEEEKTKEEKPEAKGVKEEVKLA
UniProt Q9UBN7, whole entry: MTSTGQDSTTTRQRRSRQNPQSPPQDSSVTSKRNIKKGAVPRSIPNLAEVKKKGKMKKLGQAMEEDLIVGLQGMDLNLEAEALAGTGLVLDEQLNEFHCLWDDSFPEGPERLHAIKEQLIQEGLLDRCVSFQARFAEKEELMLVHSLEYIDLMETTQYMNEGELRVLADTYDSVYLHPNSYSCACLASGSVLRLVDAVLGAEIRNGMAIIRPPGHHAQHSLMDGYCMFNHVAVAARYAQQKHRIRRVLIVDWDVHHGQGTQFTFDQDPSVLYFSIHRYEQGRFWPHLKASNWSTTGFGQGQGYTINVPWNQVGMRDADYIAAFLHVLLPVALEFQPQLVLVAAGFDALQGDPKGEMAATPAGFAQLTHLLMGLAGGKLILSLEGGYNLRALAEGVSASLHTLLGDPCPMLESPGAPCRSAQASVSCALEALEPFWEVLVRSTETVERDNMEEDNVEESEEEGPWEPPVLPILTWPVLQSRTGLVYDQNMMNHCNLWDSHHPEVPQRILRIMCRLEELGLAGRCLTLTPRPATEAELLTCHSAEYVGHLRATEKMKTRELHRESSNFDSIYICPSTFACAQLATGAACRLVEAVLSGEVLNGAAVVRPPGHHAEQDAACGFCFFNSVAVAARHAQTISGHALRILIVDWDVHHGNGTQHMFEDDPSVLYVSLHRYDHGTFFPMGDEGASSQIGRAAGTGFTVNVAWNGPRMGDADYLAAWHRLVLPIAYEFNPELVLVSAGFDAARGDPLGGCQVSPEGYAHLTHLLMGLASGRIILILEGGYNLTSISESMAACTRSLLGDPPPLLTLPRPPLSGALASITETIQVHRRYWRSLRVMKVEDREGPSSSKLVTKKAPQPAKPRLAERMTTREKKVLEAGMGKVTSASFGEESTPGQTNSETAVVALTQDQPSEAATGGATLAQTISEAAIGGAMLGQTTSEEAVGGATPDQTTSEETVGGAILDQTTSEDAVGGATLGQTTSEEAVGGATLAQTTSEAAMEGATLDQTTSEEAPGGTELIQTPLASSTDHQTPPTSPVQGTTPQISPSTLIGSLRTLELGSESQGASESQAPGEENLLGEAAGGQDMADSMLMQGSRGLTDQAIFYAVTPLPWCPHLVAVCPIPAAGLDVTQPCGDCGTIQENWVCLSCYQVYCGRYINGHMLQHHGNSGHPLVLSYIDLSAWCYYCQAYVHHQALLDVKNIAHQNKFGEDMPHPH

| IC50 [1] | IC50 (HDAC1) | IC50 [2] | IC50 (human recombinant HDAC6) | IC50 [3] | Structure (SMILES) | γ-H2AX formation ([4]; IC50 (from MTT assay)) | γ-H2AX formation ([4]; fivefold IC50 (from MTT assay)) |
| --- | --- | --- | --- | --- | --- | --- | --- |
| 16.2 µM | 0.705 µM | 165 µM | 0.035 µM | 98.7 µM | Cn1nnc2c(C(=O)NCc3ccc(C(=O)NO)cc3)ncn2c1=O |  |  |
| 10.1 µM | 0.122 µM | 84.3 µM | 0.051 µM | 32.2 µM | O=C(/C=C/c1ccc(CNC(=O)c2ncn3c(=O)n(CCCl)nnc23)cc1)NO | not different from control | only weak DNA damage |

— PMC7756583, “Hydroxamic Acids Immobilized on Resins (HAIRs): Synthesis of Dual‐Targeting HDAC Inhibitors and HDAC Degraders (PROTACs)” (Angewandte Chemie (International Ed. in English), 2020)
